Assay results from patent US20090042906A1, “METHODS FOR TREATING CANCERS ASSOCIATED WITH CONSTITUTIVE EGFR SIGNALING” (Massachusetts Institute of Technology, priority 2007, published 2009).

Target: T1, EGFRvIII (Homo sapiens, UniProt P00533, DELINS30-297G)
T1 construct: expressed in transfected cells; host or cells: U87MG human glioblastoma cells (U87H population), retroviral transduction with pLERNL
Assay: Immunoblotting of EGFRvIII phosphorylation after kinase inhibitor treatment of U87H cells
Type: cell-based
Settings: 1 h AG1478 dose escalation after 24-h serum starvation, Western blot

EGFRvIII phosphorylation levels: dose-dependent decrease
SMILES: COc1cc2ncnc(Nc3cccc(Cl)c3)c2cc1OC [AG1478]
